# From patent US11407737B2, “Inhibitors of RAF kinases” (Kinnate Biopharma Inc., priority 2020, dated 2022)
# Target: human RAF1 (Homo sapiens (Human), UniProt P04049)
# Experiment: Protein kinase assay (radiometric 33P-ATP, MEK1 (K97R) substrate), RAF-1
# Assay type: biochemical
# Settings: human MEK1 (K97R) substrate 3 micromolar, ATP 10 micromolar, 3-fold serial dilution starting at 10 micromolar
# Description: Example 1: Kinase Assay Protocol
# Assay platform was used to measure kinase/inhibitor interactions as described previously (Anastassiadis et al., 2011). In brief, for each reaction, kinase and substrate were mixed in a buffer containing 20 mM HEPES (pH 7.5), 10 mM MgCl2, 1 mM EGTA, 0.02% Brij35, 0.02 mg/mL BSA, 0.1 mM Na3VO4, 2 mM DTT, and 1% DMSO. All compounds were solubilized in DMSO. Compounds were then added to each reaction mixture via acoustic dispense using an ECHO 550 nanoliter dispenser. For human RAF1 testing, human MEK1 (K97R) was used as a substrate at a concentration of 3 micromolar, with a final ATP concentration of 10 micromolar. For human BRAF testing, human MEK1 (K97R) was used as a substrate at 1 micromolar concentration, with a final ATP concentration of 25 micromolar. Compounds were tested in 10-dose IC50 mode with a 3-fold serial dilution starting at 10 micromolar. After a 20-min incubation, ATP (Sigma-Aldrich, St. Louis, Mo. 63178) and [g33P] ATP (specific activity 10 microCi/microliter) purchased at PerkinElmer (Boston, Mass., 02118 Cat #BLU 003H250UC) were added at a final total concentration of 10 mM. […] The percent remaining kinase activity relative to a vehicle-containing (DMSO) kinase reaction was calculated for each kinase/inhibitor pair. IC50 values were calculated using Prism 5 (GraphPad).
compound,measurement,value
"Cc1ccc(NC(=O)N2CC[C@@H](CC(F)(F)F)C2)cc1-c1cc(C(=O)N(C)C)nc(N2CCOCC2)c1 [Example 19, N, N-dimethyl-4-[2-methyl-5-[(3S)-3-(2,2,2-trifluoroethyl)pyrrolidine-1-carbonylamino]phenyl]-6-(morpholin-4-yl)pyridine-2-carboxamide]",pIC50,> 9.00

# pIC50: −log10 of the molar value.
